Literature values in US20100320428A1, “GASEOUS DIELECTRICS WITH LOW GLOBAL WARMING POTENTIALS” (priority 2006, published 2010).

Conditions: boiling point; Table 2, preferred dielectric compounds; cited from earlier work

## Phosphorus chloride difluoride
  MY BP: −47.3 °C
